Results taken from PubChem BioAssay AID588397 (National Center for Advancing Translational Sciences (NCATS), 2011).
The entries are a selection whose mix differs from that of the whole data set. Inconclusive results are not listed. Activity calls are given as the source filed them. Calls come from the whole dose curve; as a rule, active = well fitted inhibition curve with a large enough effect; inconclusive = small, poorly fitted or top-dose-only effect; inactive = no such curve, though single readings can be large or run the other way.

Assay: qHTS of small molecules that selectively kill Giardia lamblia: Hit Validation.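 Note: viability measured as ATP content by luminescence so killing lowers signal; trophozoites exposed to compounds for 48 h anaerobically at 37 °C; nearly all actives have a fitted effect of over 65% in size.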
Conditions: Giardia lamblia trophozoite viability, dose-response
From the text: Giardia lamblia is a human pathogen afflicting impoverished nations, and the most common cause of outbreaks of diarrhea in the United States. Giardia has been classified by the CDC as a category B bioterrorism organism. The favored anti giardiasis drugs in the US are metronidazole or tinidazole, compounds that have undesirable side effects. Moreover, increasing resistance to drug regimes and recurrence are a concern. It is thus clear that alternative drug treatments are needed.
In a collaboration between the University of Maryland, College Park and the NIH Chemical Genomics Center, a bioluminescence Giardia viability assay based on the trophozoites' ATP content was developed. This assay is suitable for high throughput screening, and miniaturized the assay for compound screening in 1536-well plates. The goal of the project is to screen the Molecular Libraries Small Molecule Repository (MLSMR) for compounds that selectively kill Giardia trophozoites.
NIH Chemical Genomics Center [NCGC]
NIH Molecular Libraries Probe Centers Network [MLPCN]
Assay Submitter (PI): Osnat Herzberg, University of Maryland, College Park, MD.
1. Dispense 2 ul/well media
2. Dispense 23 nl/well compounds
3. Dispense 4 ul/well Giardia trophozoites at a concentration of 100 cells/well
4. Incubate 48 hrs at 37 deg C anaerobically
5. Dispense 4 ul/well ATPLite 1-Step Luminescence assay kit
6. Incubate 15-30 min at room temperature
7. Read luminescence signal on ViewLux plate reader
Potency is the fitted concentration of half-maximal effect.

Compound	Potency
O=[N+]([O-])c1cc([N+](=O)[O-])c(Nc2cccnc2)c([N+](=O)[O-])c1	active: 3260 nM
CC1=CC2OC3CC4OC(=O)C=CC=CC(=O)OCCC(C)C(O)C(=O)OCC2(CC1O)C4(C)C31CO1 (stereo not drawn)	active: 163 nM
O=[N+]([O-])c1cc([N+](=O)[O-])c(Nc2ccccn2)c([N+](=O)[O-])c1	active: 918 nM
